Measurements from patent US20210380535A1, “CO-CRYSTALS COMPRISING EPICATECHIN AND A CARBOXY-N-HETEROCYCLIC CO-CRYSTAL FORMER” (Epirium Bio Inc., priority 2018, published 2021).

Experiments:
[1] = Pharmacokinetics study of (+)/(−) epicatechin and their trigonelline (1:1) co-crystals, oral (Example 3); format: in vivo; settings: male SD rats, 10 mpk equivalent of parent drug, vehicle CMC and Tween 80, plasma
Description: (§1) Co-crystals of the present invention were administered orally (PO) at a dose of 10 mpk equivalent of parent drugs in male SD rats. The PK results of the compound were compared with exposure of parent drugs. […] Blood samples were centrifuged at 10,000 rpm for 5 min. at 4° C. to obtain the plasma, which were aspirated into separate labelled tubes and stored at −80° C. Extraction solvent was added to plasma, was vortexed and shaken on shaker for 10 minutes, centrifuged at 10,000 rpm for 10 minutes at 4° C. Supernatant was kept for analysis.

[2] = Pharmacokinetics study of (+) epicatechin (SPR590) and its trigonelline (1:1) co-crystal (SPR515), oral (Example 4); format: in vivo; settings: male SD rats, CMC and Tween 80; for Plasma level: PO 10 mpk (SPR515: equivalent to 6.25 mpk epicatechin)
Description: as §1, with “mpk” for “mpk equivalent of parent drugs”, “rats for the control (+) epicatechin group and 10 mpk of SPR 515 which is equivalent to 6.25 mpk of epicatechin.” for “rats.”

[3] = PO, dose 10 mpk (MW adjusted (+)-epicatechin dose: SPR590 10 mpk, SPR515 6.25 mpk)

Row | Substance | AUC [1] [µM·h] | Cmax [1] [nM] | Tmax [1] [min] | T½ elimination [1] [min] | AUC [2, 3] [µM·h] | Cmax [2, 3] [nM] | Plasma level ([2]; time point 0.16 h) [nM] | Plasma level ([2]; time point 0.5 h) [nM] | Plasma level ([2]; time point 1 h) [nM] | Plasma level ([2]; time point 2 h) [nM] | Plasma level ([2]; time point 4 h) [nM] | Plasma level ([2]; time point 8 h) [nM]
1 | (−) Epicatechin_Trigonelline (1:1) Co-Crystals [Compound 101] | 0.7566 | 435 | 66 | 27 |  |  |  |  |  |  |  | 
2 | (+) Epicatechin_Trigonelline (1:1) Co-Crystals [Compound 104] | 0.7456 | 455 | 48 | 40.8 | 1.8212 | 801 | 432.4 | 620.5 | 764.0 | 418.9 | 95.3 | 0.0
